substance,measurement,setting,value
Poly(L-Lysine.HCl)55-b-poly(rac-Leucine)20 [K55(rac-L)20],cytotoxicity of block-sequence versus random-sequence copolypeptide,mouse keratinocytes,less cytotoxic
same,cytotoxicity in vitro of emulsions,human keratinocytes,less cytotoxicity

# — patent publication US9017730B2 (The Regents of the University of California, priority 2010, dated 2015)
